This is a selection; strong and weak results do not stand in their true shares. The source made the active and inactive calls.

Protein sequences, listed by entry. Tags and fused reporters are not part of them. Lines headed by an entry give the natural chain unless they say otherwise; changes in a name come on top.
UniProt O15520: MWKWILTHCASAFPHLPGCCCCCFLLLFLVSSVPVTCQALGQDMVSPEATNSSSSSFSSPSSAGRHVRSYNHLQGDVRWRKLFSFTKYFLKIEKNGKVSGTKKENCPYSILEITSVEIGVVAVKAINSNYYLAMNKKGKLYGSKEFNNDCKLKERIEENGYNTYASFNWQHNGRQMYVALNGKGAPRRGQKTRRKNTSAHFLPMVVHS
UniProt O95633: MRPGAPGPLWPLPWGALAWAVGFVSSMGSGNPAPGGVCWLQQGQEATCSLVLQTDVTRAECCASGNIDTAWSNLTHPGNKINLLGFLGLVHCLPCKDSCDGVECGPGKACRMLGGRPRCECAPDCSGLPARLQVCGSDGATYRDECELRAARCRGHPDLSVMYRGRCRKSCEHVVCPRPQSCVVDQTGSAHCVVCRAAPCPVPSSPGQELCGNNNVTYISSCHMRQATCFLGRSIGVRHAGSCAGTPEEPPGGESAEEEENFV
UniProt O94907: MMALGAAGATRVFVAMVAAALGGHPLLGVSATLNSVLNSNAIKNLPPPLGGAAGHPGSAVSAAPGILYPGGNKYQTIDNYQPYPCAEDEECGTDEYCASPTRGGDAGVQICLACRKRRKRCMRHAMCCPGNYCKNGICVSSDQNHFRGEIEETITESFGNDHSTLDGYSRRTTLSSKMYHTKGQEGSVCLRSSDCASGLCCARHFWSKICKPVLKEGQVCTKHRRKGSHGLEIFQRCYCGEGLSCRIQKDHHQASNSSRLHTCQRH
UniProt O00292: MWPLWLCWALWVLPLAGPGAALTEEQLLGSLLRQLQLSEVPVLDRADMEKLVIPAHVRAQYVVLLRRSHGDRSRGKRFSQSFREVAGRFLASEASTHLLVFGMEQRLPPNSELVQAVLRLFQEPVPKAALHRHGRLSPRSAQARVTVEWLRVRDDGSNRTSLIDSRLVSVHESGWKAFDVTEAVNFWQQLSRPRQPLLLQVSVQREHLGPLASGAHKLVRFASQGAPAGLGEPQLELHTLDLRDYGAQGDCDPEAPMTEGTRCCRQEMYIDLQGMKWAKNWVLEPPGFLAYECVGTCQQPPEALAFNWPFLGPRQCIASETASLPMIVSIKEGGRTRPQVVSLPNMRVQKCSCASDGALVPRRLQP
UniProt Q5JTV8: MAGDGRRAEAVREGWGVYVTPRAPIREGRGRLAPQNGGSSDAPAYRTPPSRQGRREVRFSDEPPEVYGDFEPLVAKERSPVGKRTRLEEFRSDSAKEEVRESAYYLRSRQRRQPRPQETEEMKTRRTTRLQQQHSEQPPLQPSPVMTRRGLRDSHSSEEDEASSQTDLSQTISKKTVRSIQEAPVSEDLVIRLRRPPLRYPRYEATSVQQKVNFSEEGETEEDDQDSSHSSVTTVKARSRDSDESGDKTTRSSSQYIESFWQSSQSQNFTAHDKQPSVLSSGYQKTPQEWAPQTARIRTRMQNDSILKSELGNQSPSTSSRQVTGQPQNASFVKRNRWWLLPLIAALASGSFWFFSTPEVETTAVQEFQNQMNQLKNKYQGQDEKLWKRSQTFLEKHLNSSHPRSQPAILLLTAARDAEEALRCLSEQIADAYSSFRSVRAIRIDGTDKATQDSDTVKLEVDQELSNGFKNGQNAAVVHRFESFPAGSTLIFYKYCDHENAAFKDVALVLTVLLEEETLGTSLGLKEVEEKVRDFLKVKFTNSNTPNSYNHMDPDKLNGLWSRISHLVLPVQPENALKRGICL
UniProt P02769, whole entry, looked up: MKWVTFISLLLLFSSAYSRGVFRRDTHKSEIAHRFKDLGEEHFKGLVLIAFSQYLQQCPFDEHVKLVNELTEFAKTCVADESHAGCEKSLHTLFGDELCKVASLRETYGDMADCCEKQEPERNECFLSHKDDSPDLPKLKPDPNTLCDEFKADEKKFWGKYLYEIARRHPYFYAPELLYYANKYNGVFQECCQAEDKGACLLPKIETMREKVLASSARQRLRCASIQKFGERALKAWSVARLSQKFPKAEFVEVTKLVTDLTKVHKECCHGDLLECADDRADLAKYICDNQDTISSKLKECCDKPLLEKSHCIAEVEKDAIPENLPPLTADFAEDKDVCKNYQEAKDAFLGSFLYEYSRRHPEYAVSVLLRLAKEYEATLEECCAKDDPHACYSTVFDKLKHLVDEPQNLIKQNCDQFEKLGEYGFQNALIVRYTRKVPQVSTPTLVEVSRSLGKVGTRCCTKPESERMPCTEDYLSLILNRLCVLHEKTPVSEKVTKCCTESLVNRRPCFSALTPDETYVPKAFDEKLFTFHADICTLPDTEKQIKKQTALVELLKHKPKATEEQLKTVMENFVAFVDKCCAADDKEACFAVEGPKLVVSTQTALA

The target of assay [1] is Fibroblast growth factor 10 (Homo sapiens) (UniProt O15520). The experiment in a line: FGF10 binders on small-molecule microarrays, primary screen, biochemical, small-molecule microarray, 635 nm fluorescence (AID 1102). Particulars: FGF10 binding, fluorescence 635 nm, higher = more signal.
The test system of assay [2] is glycogen synthase kinase-3 (GSK3A per assay name; protocol says GSK3B). The assay is described as follows: GSK3 binders on small-molecule microarrays, primary screen, biochemical, small-molecule microarray, 635 nm fluorescence, GSK3A (AID 1103). Note: the record names both GSK3A and GSK3B. Particulars: small-molecule microarray binding, fluorescence 635 nm; higher = more signal.
The target in assay [3] is Epidermal growth factor receptor (Homo sapiens) (UniProt P00533). The experiment in a line: EGFR binders on small-molecule microarrays, primary screen, biochemical, small-molecule microarray, 635 nm fluorescence (AID 1104).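 Note: score merges 667 nm emission intensity with spot signal to noise over triplicate slides.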 The following applies: EGFR binding, higher = more signal.
In assay [4] the target is Follistatin-related protein 3 (Homo sapiens) (UniProt O95633). The assay is described as follows: FSTL3 binders on small-molecule microarrays, primary screen, biochemical, small-molecule microarray, 635 nm fluorescence (AID 1105).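 Note: score merges emission near 667 nm and signal to noise per printed spot across three slides.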 The following applies: FSTL3 binding, higher = more signal.
Assay [5] has as its target Dickkopf-related protein 1 (Homo sapiens) (UniProt O94907). The experiment in a line: DKK1 binders on small-molecule microarrays, primary screen, biochemical, small-molecule microarray, 635 nm fluorescence scan (AID 1106).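 Note: score merges emission near 667 nm with signal to noise over three replicate slides.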 Particulars: DKK1 binding, higher = more signal.
The subject of assay [6] is Inhibin beta A chain (activin A). The assay is described as follows: INHBA (activin A) binders on microarrays, primary screen, biochemical, small-molecule microarray, 635 nm fluorescence scan (AID 1107).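 Note: mouse activin A protein probed at 4.33 µg/mL on printed slides; score merges bound-protein fluorescence near 667 nm with spot signal-to-noise.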 Particulars: small-molecule microarray binding, higher = more signal.
A short description of assay [7]: modulators of HCV replicon luciferase signal, primary screen, HCV replication inhibitor project, Huh7 cells, luciferase reporter (AID 1109).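 Note: huh7 hepatoma cells harbouring a luciferase neomycin HCV replicon reporter; luciferase luminescence as measure of HCV replicon replication; test concentration not given here.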 The following applies: 48 h, higher = more signal.
Assay [8] has as its target Left-right determination factor 2 (Homo sapiens) (UniProt O00292). The experiment in a line: LEFTY2 binders on small-molecule microarrays, primary screen, biochemical, small-molecule microarray, 635 nm fluorescence scan (AID 1110). The following applies: LEFTY2 binding, higher = more signal.
Assay [9] addresses Calmodulin-1 (Homo sapiens) (UniProt P0DP23). The assay is described as follows: CALM1 binders on microarrays, EGTA buffer, profiling panel, biochemical, small-molecule microarray, Cy5-labelled CALM1 (AID 1111).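 Note: labelled calmodulin applied in Tris saline Tween buffer holding calcium plus EGTA and DTT.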 The following applies: Cy5-CALM1 binding fluorescence, higher = more signal.
Assay [10] has the same target. The assay is described as follows: calcium-bound CALM1 binders on microarrays, profiling panel, artefact control for SMM control-protein annotation, biochemical, small-molecule microarray, Cy5-labelled CALM1, plus calcium (AID 1112).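 Note: score merges spot fluorescence with signal to noise from triplicate slides.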 The following applies: Cy5-CALM1 binding fluorescence, higher = more signal.
Assay [11] is described as follows: small-molecule microarray binders of probe aWnt5a, primary screen, biochemical, biotinylated probe, 635/667 nm fluorescence (AID 1113).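 Note: score merges 667 nm fluorescence intensity with signal-to-noise per printed feature.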 The following applies: higher = more signal.
Assay [12] is described as follows: small-molecule microarray binders of probe aShh, primary screen, biochemical, biotinylated probe, 635/667 nm fluorescence (AID 1114).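 Note: probe is biotin-labelled aShh protein from a stem cell growth factor screen; measures binding of labelled protein to compounds printed on the slide; score merges feature fluorescence at 667 nm with signal-to-noise.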 The following applies: higher = more signal.
A short description of assay [13]: small-molecule microarray binders of probe aNog, primary screen, biochemical, biotinylated probe, 635/667 nm fluorescence (AID 1115).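 Note: probe is biotinylated aNog protein used at 0.15 µg/mL for 1 h at 4 C; z-score combines 667 nm fluorescence of each spot with its signal to noise.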 The following applies: higher = more signal.
For assay [14], the target named is Torsin-1A-interacting protein 1 (Homo sapiens) (UniProt Q5JTV8). The experiment in a line: LAP1 binders from COS7 cell lysate, primary screen, small-molecule microarray, 635/667 nm fluorescence (AID 1116). The following applies: COS7-hLAP1 lysate binding, 635 nm fluorescence, higher = more signal.
Assay [15] deals with Albumin (Bos taurus) (UniProt P02769). The experiment in a line: bovine serum albumin binders on microarray, profiling panel, artefact control for SMM control protein annotation, biochemical, small-molecule microarray, Alexa647 label, 635/667 nm fluorescence (AID 1118).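 Note: score merges 667 nm emission intensity and signal-to-noise per printed compound spot.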 The following applies: BSA-A647 binding, fluorescence 635 nm, higher = more signal.
The nature of assay [16]: small-molecule microarray binders of probe aXIP, primary screen, biochemical, NeuroSMM set, 635/667 nm fluorescence (AID 1119).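 Note: probe is the protein aXip251-270 applied at 1 µg/mL to compound-printed slides; binding of probe to printed compounds measured as 667 nm fluorescence plus signal to noise.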 Particulars: higher = more signal, called active from +8 up or from −8 down.
Assay [17] can be described thus: small-molecule binders of probe aNOTCH3, primary screen, biochemical, small-molecule microarray, 635/667 nm fluorescence (AID 1120).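 Note: probe is a biotin-tagged antibody raised against NOTCH3 rather than NOTCH3 protein; score merges spot fluorescence near 667 nm with spot signal to noise.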 The following applies: higher = more signal.
Assay [18] is described as follows: small-molecule binders of probe aNOTCH2, primary screen, biochemical, small-molecule microarray, 635/667 nm fluorescence (AID 1121).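 Note: score merges feature fluorescence read at 667 nm with its signal to noise.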 Particulars: higher = more signal.
Assay [19] deals with Carbonic anhydrase 2 (Homo sapiens) (UniProt P00918). The experiment in a line: CAII small-molecule binders, profiling panel, biochemical, small-molecule microarray, Alexa647-labelled CAII (AID 1122). Particulars: CAII-A647 binding fluorescence, higher = more signal.
A short description of assay [20]: COS7 lysate on small-molecule microarray, probe aHis, 635 nm (AID 1123).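 Note: z-score combines 667nm fluorescence intensity with signal-to-noise per printed compound spot.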 Particulars: COS7 cell lysate, fluorescence, higher = more signal.

With `COP(=O)(/N=C1/CC(CCCO)=CC(C)N1Cc1cccc(OC(F)(F)F)c1)OC` (stereo not given), the composite z-score came out at 0.652 in assay [1]; 0.583 in [2]; 0.073 in assay [3]; 0.284 in assay [4]; 0.554 in assay [5]; 1.38 in assay [6]. Besides, the composite z-score in [8] is 0.0568; in assay [9], 2.05; in [10], 1.36; in assay [11], -0.0192; in assay [12] it was 0.358; in assay [13] it was 1.27. In addition, the composite z-score in [14] was 2.14; in assay [15], 0.688; in assay [17], 0.0026; in assay [18], 0.0768; in assay [19] it was 0.785; in assay [20] it was 1.27. For the same compound, the z-score in assay [7] was -0.276. Also, in assay [16], the composite Z-score is inactive: 1.05.

As to `O=P(/N=C1/CC(CCCO)=CC(C2CC2)N1Cc1cc2c(cc1Br)OCO2)(Oc1ccccc1)Oc1ccccc1` (stereo not given), the composite z-score in [1] is -0.261; in assay [2], 0.431; in assay [3], -0.253; in [4], 0.199; in assay [5], -0.497; in [6], 1.15. In addition, the composite z-score is -0.34 in assay [8]; 1.71 in assay [9]; 0.875 in assay [10]; 0.0324 in [11]; -0.154 in [12]; 0.869 in assay [13]. Also, the composite z-score in assay [14] was 1.57; in assay [15] it was 1.1; in [17], 0.0425; in assay [18], -0.02; in assay [19], 0.87; in [20], 2.09. The compound further had a z-score in assay [7] of -0.496. In assay [16], the composite Z-score was inactive: 0.38.

As to `CC1C=C(CCCO)C/C(=N/P(=O)(Oc2ccccc2)Oc2ccccc2)N1Cc1cccc(OC(F)(F)F)c1` (stereo not given), the composite z-score in assay [1] is 0.121; in [2], 0.262; in assay [3], -0.297; in assay [4], 0.0722; in [5], -0.0231; in assay [6] it was 0.817. In addition, the composite z-score in assay [8] is 0.0418; in [9], 0.396; in [10], 0.718; in assay [11] it was -0.0203; in [12], 0.0639; in [13], 0.422. Also, the composite z-score in assay [14] was 1; in assay [15], 0.803; in assay [17], 0.0257; in assay [18] it was -0.0859; in assay [19] it was 0.503; in [20], 1.97. This compound displayed a z-score in assay [7] of -0.922. The composite Z-score in assay [16] was inactive: 0.586.

On to `O=P(/N=C1/CC(CCCO)=CC(c2cccs2)N1Cc1cc2c(cc1Br)OCO2)(Oc1ccccc1)Oc1ccccc1` (stereo not given), for which the composite z-score in [1] stood at 0.949; in assay [2] it was 0.923; in assay [3], 0.316; in assay [4], 1.07; in [5], 0.44; in assay [6] it was 0.553. Moreover, the composite z-score in assay [8] was found to be 0.321; in assay [9], 1.9; in [10], 0.388; in assay [11] it was 0.0169; in assay [12] it was 0.0684; in assay [13], 0.672. Further, the composite z-score came to 1.25 in assay [14]; 1.02 in assay [15]; 0.0979 in assay [17]; 0.0028 in [18]; 0.462 in assay [19]; 2.69 in assay [20]. In [7], this compound returned a z-score of -0.901. In addition, in assay [16], the composite Z-score was inactive: 1.21.

For `O=P(/N=C1/CC(CCCO)=CC(C2CC2)N1Cc1cccc(OC(F)(F)F)c1)(Oc1ccccc1)Oc1ccccc1` (stereo not given), the composite z-score was -0.0449 in [1]; 0.0232 in assay [2]; -0.288 in [3]; -0.244 in assay [4]; -0.118 in assay [5]; 0.804 in assay [6]. Besides, the composite z-score in assay [8] was -0.191; in [9], 0.358; in assay [10], 1; in assay [11] it was -0.0478; in assay [12] it was -0.214; in assay [13] it was 0.189. The composite z-score in assay [14] is 1.3; in assay [15] it was 0.295; in assay [17] it was -0.0967; in assay [18] it was -0.124; in assay [19], 0.781; in assay [20] it was 1.59. Also, in assay [7], the z-score was -1.51. In assay [16], the composite Z-score was inactive: -0.199.

Regarding `O=P(/N=C1/CC(CCCO)=CC(c2cccs2)N1Cc1cccc(OC(F)(F)F)c1)(Oc1ccccc1)Oc1ccccc1` (stereo not given), the composite z-score in assay [1] is 0.216; in [2], 0.283; in [3], 0.251; in assay [4], 0.237; in assay [5] it was -0.122; in assay [6], 1.09. Moreover, the composite z-score was -0.245 in assay [8]; 1.69 in assay [9]; 0.78 in assay [10]; -0.0718 in assay [11]; 0.0469 in assay [12]; 1.49 in assay [13]. For the same compound, the composite z-score in [14] is 1.34; in [15] it was 0.973; in [17], -0.0378; in [18], -0.0787; in assay [19], 0.48; in assay [20], 1.23. Also, in assay [7], the z-score is -1.65. In addition, in assay [16], the composite Z-score was inactive: 2.87.

`O=P(/N=C1/CC(CCCO)=CC(C2CC2)N1Cc1sc2ccccc2c1Cl)(Oc1ccccc1)Oc1ccccc1` (stereo not given): the composite z-score in [1] is 0.553; in assay [2], 0.0592; in assay [3] it was -0.338; in assay [4], 0.349; in assay [5], 0.267; in assay [6], 1.01. Also, the composite z-score is -0.247 in [8]; 1.5 in assay [9]; 0.791 in assay [10]; 0.0167 in assay [11]; -0.0596 in assay [12]; 0.776 in [13]. The composite z-score in [14] was 2.59; in assay [15], 0.927; in assay [17], -0.294; in assay [18] it was -0.0064; in assay [19], 0.788; in [20], 1.98. Besides, the z-score in [7] was -0.884. The composite Z-score in assay [16] was inactive: 0.221.

Source of the values: PubChem BioAssay.
